± gives the standard deviation of the averaged measurements. For some assays here: The highest values were mostly taken out for another list; the other results follow. For some assays here: What follows is the remainder of the data, with few or none of the lowest values.
Key:
[1] = test system: DLD1; assay: cell viability (CellTiter-Glo) relative to plate median (fraction of plate median); higher = more viable cells; details: 5 µM; treatment time 24 h; reporter: 7TFP
Summary of the method: (§1)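 Per-well firefly luciferase or CellTiterGlo luminescence, normalised to the plate median, is what is reported. It was measured in colorectal cancer cells with stable lentiviral TCF/Wnt firefly luciferase reporters after a 24 h treatment with library compounds at a final 5 µM. The mean of two independent replicates is given.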

[2] = test system: HCT116; assay: as above; details: 5 µM; treatment time 24 h; reporter: TCF4/Wnt
Summary of the method: as §1

[3] = test system: SW480; assay: as above; details: 5 µM; treatment time 24 h; reporter: 7TFP
Summary of the method: as §1

[4] = test system: DLD1; assay: TCF/Wnt firefly luciferase reporter signal relative to plate median (fraction of plate median); higher = higher Wnt reporter signal; details: 5 µM; treatment time 24 h; reporter: 7TFP
Summary of the method: as §1

[5] = test system: SW480; assay: as above; details: 5 µM; treatment time 24 h; reporter: 7TFP
Summary of the method: as §1

COc1c2ccccc2nc2occc12
cell viability [1]: 0.938 ± 0.088 | cell viability [2]: 0.9605 ± 0.0035 | cell viability [3]: 1 ± 0.12 | TCF/Wnt firefly luciferase reporter signal [4]: 1.04 ± 0.014 | TCF/Wnt firefly luciferase reporter signal [5]: 1.004 ± 0.0078
